What was measured:
[1] = molecular target: T1, human cannabinoid receptor CB2 (Homo sapiens, UniProt P34972); assay: yeast CB2 NanoLuc reporter dose-response (agonist), A2A null control strain
[2] = molecular target: T1, human cannabinoid receptor CB2; assay: yeast CB2 NanoLuc reporter, antagonism of CP55940, A2A null control strain

Protein sequences, listed by entry. Tags and fused reporters are not part of them.
UniProt P34972, whole entry: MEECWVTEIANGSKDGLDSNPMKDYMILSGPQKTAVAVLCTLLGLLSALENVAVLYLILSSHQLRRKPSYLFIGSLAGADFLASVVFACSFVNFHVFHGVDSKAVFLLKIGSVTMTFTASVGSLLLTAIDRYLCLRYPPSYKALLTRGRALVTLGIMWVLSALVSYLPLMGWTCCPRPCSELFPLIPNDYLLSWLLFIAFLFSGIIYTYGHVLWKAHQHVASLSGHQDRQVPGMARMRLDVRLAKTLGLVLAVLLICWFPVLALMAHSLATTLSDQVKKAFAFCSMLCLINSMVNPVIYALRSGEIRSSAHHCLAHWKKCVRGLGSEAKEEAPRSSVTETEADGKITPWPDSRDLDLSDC

| Compound | EC50 [1] | IC50 [2] |
| --- | --- | --- |
| COc1cc(NC(=O)c2oc3ccc(Cl)cc3c2C)ccc1NC(=O)c1ccco1 | 389 nM |  |
| CC(C)C(=O)NC(NC(=S)Nc1ccccc1C(=O)O)C(Cl)(Cl)Cl (stereo not drawn) | 1500 nM |  |
| CCc1ccc(NC(=O)Cn2cnc3scc(-c4ccccc4)c3c2=O)cc1 |  | 710 nM |

From publication PMC9237071
